Conditions: in two polar aprotic solvents N-methyl-2-pyrrolidone (NMP) and dimethyl sulfoxide
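Also: part of a solubility screen of the drug across over 50 solvents and polymers, with emphasis on polar aprotic solvents.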

solubility: More than 20%
SMILES: Nc1cccc2c1CN(C1CCC(=O)NC1=O)C2=O (stereo not shown) [Lenalidomide, 3-(4-amino-1-3-dihydro-1-oxo-2H-isoindol-2yl)-2,6-piperidinedione]
